Test results: patent US20090099157A1, “TETRAHYDRO-PYRAZOLO-PYRIDINE THIOETHER MODULATORS OF CATHEPSIN S” (priority 2007, published 2009)

Amino acid sequences for entries named in this document (tags omitted). Residues count along the entry.
UniProt P25774, 115-331: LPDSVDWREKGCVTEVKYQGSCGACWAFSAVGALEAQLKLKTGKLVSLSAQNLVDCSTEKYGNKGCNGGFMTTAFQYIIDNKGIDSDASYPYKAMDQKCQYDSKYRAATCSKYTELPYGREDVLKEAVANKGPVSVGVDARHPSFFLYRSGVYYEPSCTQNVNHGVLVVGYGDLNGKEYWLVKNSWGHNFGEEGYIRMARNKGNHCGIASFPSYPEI

Target: Recombinant human cathepsin S (CatS) (Homo sapiens, UniProt P25774)
Test: biochemical

SMILES	IC50 [nM]
CS(=O)(=O)N1CCc2c(c(-c3ccc(C(F)(F)F)c(SCCN4CCC(F)CC4)c3)nn2C[C@@H](O)CN2CCCCC2)C1 [Example 199, (2S)-1-{3-[3-{[2-(4-Fluoropiperidin-1-yl)ethyl]sulfanyl}-4-(trifluoromethyl)phenyl]-5-(methylsulfonyl)-4,5,6,7-tetrahydro-1H-pyrazolo[4,3-c]pyridin-1-yl}-3-piperidin-1-ylpropan-2-ol]	60
COc1ccccc1C1CCN(CC(O)Cn2nc(-c3ccc(C(F)(F)F)c(SCC(=O)N4CCOCC4)c3)c3c2CCNC3)CC1 (stereo not shown) [Example 266, 1-{4-[2-(Methyloxy)phenyl]piperidin-1-yl}-3-(3-{3-[(2-morpholin-4-yl-2-oxoethyl)sulfanyl]-4-(trifluoromethyl)phenyl}-4,5,6,7-tetrahydro-1H-pyrazolo[4,3-c]pyridin-1-yl)propan-2-ol]	100
CS(=O)(=O)N1CCc2c(c(-c3ccc(C(F)(F)F)c(SCC(=O)NC4Cc5ccccc5C4)c3)nn2CC(O)CN2CCC(N3CCCC3=O)CC2)C1 (stereo not shown) [Example 69, 2-[5-(1-{2-Hydroxy-3-[4-(2-oxo-pyrrolidin-1-yl)-piperidin-1-yl]-propyl}-5-methanesulfonyl-4,5,6,7-tetrahydro-1H-pyrazolo[4,3-c]pyridin-3-yl)-2-trifluoromethyl-phenylsulfanyl]-N-indan-2-yl-acetamide]	2900
O=C(CO)N1CCc2c(c(-c3ccc(C(F)(F)F)c(SCCN4CCC(F)CC4)c3)nn2C[C@@H](O)CN2CCCCC2)C1 [Example 251, (2S)-1-{3-[3-{[2-(4-Fluoropiperidin-1-yl)ethyl]sulfanyl}-4-(trifluoromethyl)phenyl]-5-(hydroxyacetyl)-4,5,6,7-tetrahydro-1H-pyrazolo[4,3-c]pyridin-1-yl}-3-piperidin-1-ylpropan-2-ol]	230
CS(=O)(=O)N1CCc2c(c(-c3ccc(C(F)(F)F)c(SCCN4CC[C@H](F)C4)c3)nn2C[C@@H](O)CN2C=NCCC2)C1 [Example 353, (2S)-1-(5,6-Dihydropyrimidin-1(4H)-yl)-3-{3-[3-({2-[(3S)-3-fluoropyrrolidin-1-yl]ethyl}sulfanyl)-4-(trifluoromethyl)phenyl]-5-(methylsulfonyl)-4,5,6,7-tetrahydro-1H-pyrazolo[4,3-c]pyridin-1-yl}propan-2-ol]	10100
O[C@@H](CN1CCC(c2ccccn2)CC1)Cn1nc(-c2ccc(C(F)(F)F)c(SCCN3CCC(F)CC3)c2)c2c1CCNC2 [Example 233, (2S)-1-{3-[3-{[2-(4-Fluoropiperidin-1-yl)ethyl]sulfanyl}-4-(trifluoromethyl)phenyl]-4,5,6,7-tetrahydro-1H-pyrazolo[4,3-c]pyridin-1-yl}-3-(4-pyridin-2-ylpiperidin-1-yl)propan-2-ol]	170
CS(=O)(=O)N1CCc2c(c(-c3ccc(Cl)c(SCc4ccc(Cl)cc4)c3)nn2CCCN2CCOCC2)C1 [Example 135, 3-[4-Chloro-3-(4-chloro-benzylsulfanyl)-phenyl]-5-methanesulfonyl-1-(3-morpholin-4-yl-propyl)-4,5,6,7-tetrahydro-1H-pyrazolo[4,3-c]pyridine]	350

More lines, now with the values ahead:

IC50 [nM]	SMILES
35	CS(=O)(=O)N1CCc2c(c(-c3ccc(C(F)(F)F)c(SCC(=O)N4CCOCC4)c3)nn2CC(O)CN2CCC(NC(=O)CO)CC2)C1 (stereo not shown) [Example 696, 2-Hydroxy-N-(1-{2-hydroxy-3-[5-(methylsulfonyl)-3-{3-[(2-morpholin-4-yl-2-oxoethyl)sulfanyl]-4-(trifluoromethyl)phenyl}-4,5,6,7-tetrahydro-1H-pyrazolo[4,3-c]pyridin-1-yl]propyl}piperidin-4-yl)acetamide]
390	CS(=O)(=O)N1CCc2c(c(-c3ccc(C(F)(F)F)c(SCCN4CCCC4)c3)nn2CC(O)CN2CCC(C(=O)N3CCOCC3)CC2)C1 (stereo not shown) [Example 753, 1-[5-(Methylsulfonyl)-3-{3-[(2-pyrrolidin-1-ylethyl)sulfanyl]-4-(trifluoromethyl)phenyl}-4,5,6,7-tetrahydro-1H-pyrazolo[4,3-c]pyridin-1-yl]-3-[4-(morpholin-4-ylcarbonyl)piperidin-1-yl]propan-2-ol]
210	CS(=O)(=O)N1CCc2c(c(-c3ccc(C(F)(F)F)c(SCCN4CCC(F)CC4)c3)nn2C[C@@H](O)CN2CCCCCC2)C1 [Example 472, (2S)-1-Azepan-1-yl-3-{3-[3-{[2-(4-fluoropiperidin-1-yl)ethyl]sulfanyl}-4-(trifluoromethyl)phenyl]-5-(methylsulfonyl)-4,5,6,7-tetrahydro-1H-pyrazolo[4,3-c]pyridin-1-yl}propan-2-ol]
270	CC(=O)N1CCc2c(c(-c3ccc(C(F)(F)F)c(SCC(=O)N4CCCC4)c3)nn2CC(O)CN2CCc3ccccc3C2)C1 (stereo not shown) [Example 369, 1-(5-Acetyl-3-{3-[(2-oxo-2-pyrrolidin-1-ylethyl)sulfanyl]-4-(trifluoromethyl)phenyl}-4,5,6,7-tetrahydro-1H-pyrazolo[4,3-c]pyridin-1-yl)-3-(3,4-dihydroisoquinolin-2(1H)-yl)propan-2-ol]
1540	CS(=O)(=O)N1CCc2c(c(-c3ccc(C(F)(F)F)c(SCCN4CCOCC4)c3)nn2CC(O)CN2CCc3[nH]cnc3C2)C1 (stereo not shown) [Example 528, 1-[5-(Methylsulfonyl)-3-{3-[(2-morpholin-4-ylethyl)sulfanyl]-4-(trifluoromethyl)phenyl}-4,5,6,7-tetrahydro-1H-pyrazolo[4,3-c]pyridin-1-yl]-3-(1,4,6,7-tetrahydro-5H-imidazo[4,5-c]pyridin-5-yl)propan-2-ol]
650	CCOc1ccccc1N1CCN(CC(O)Cn2nc(-c3ccc(C(F)(F)F)c(SCCN4CCCCC4)c3)c3c2CCNC3)CC1 (stereo not shown) [Example 546, 1-{4-[2-(Ethyloxy)phenyl]piperazin-1-yl}-3-(3-{3-[(2-piperidin-1-ylethyl)sulfanyl]-4-(trifluoromethyl)phenyl}-4,5,6,7-tetrahydro-1H-pyrazolo[4,3-c]pyridin-1-yl)propan-2-ol]
30	CS(=O)(=O)N1CCc2c(c(-c3ccc(C(F)(F)F)c(SCCN4CCCC(CO)C4)c3)nn2CC(O)CN2CCN(c3ccccc3C#N)CC2)C1 (stereo not shown) [Example 855, 2-[4-(2-Hydroxy-3-{3-[3-({2-[3-(hydroxymethyl)piperidin-1-yl]ethyl}sulfanyl)-4-(trifluoromethyl)phenyl]-5-(methylsulfonyl)-4,5,6,7-tetrahydro-1H-pyrazolo[4,3-c]pyridin-1-yl}propyl)piperazin-1-yl]benzonitrile]
310	CS(=O)(=O)N1CCc2c(c(-c3ccc(C(F)(F)F)c(SCCN4CCC(F)CC4)c3)nn2C[C@@H](O)CN2C=NCCC2)C1 [Example 394, (2S)-1-(5,6-Dihydropyrimidin-1(4H)-yl)-3-{3-[3-{[2-(4-fluoropiperidin-1-yl)ethyl]sulfanyl}-4-(trifluoromethyl)phenyl]-5-(methylsulfonyl)-4,5,6,7-tetrahydro-1H-pyrazolo[4,3-c]pyridin-1-yl}propan-2-ol]
120	CS(=O)(=O)N1CCc2c(c(-c3ccc(C(F)(F)F)c(SCCN4CCOCC4)c3)nn2CC(O)CN2CCC(Oc3ccccn3)CC2)C1 (stereo not shown) [Example 732, 1-[5-(Methylsulfonyl)-3-{3-[(2-morpholin-4-ylethyl)sulfanyl]-4-(trifluoromethyl)phenyl}-4,5,6,7-tetrahydro-1H-pyrazolo[4,3-c]pyridin-1-yl]-3-[4-(pyridin-2-yloxy)piperidin-1-yl]propan-2-ol]
